This assay has as its system enterovirus-68 (EV-68).

As to `CCOC(=O)c1ccc(OCCC2CCN(c3ccc(C)nn3)CC2)cc1` [Pirodavir], the SI was determined as 110.

Source of the values: patent publication US12466849B2, “Anti-viral and anti-tumoral compounds” (YEDA RESEARCH AND DEVELOPMENT CO. LTD, priority 2020, dated 2025).
